Experiment [1] concerns the target T1, Prostaglandin G/H synthase 1 (Homo sapiens, UniProt P23219). Briefly: Inhibition of COX-1 (unknown origin).
The target in experiment [2] is T1, Prostaglandin G/H synthase 1. Briefly: Inhibition of COX-1 (unknown origin) using arachidonic acid as substrate preincubated for 2 mins followed by substrate addition in presence of TMPD by spectrophotometric analysis.

Protein sequences, listed by entry. Tags and fused reporters are not part of them.
UniProt P23219, whole entry: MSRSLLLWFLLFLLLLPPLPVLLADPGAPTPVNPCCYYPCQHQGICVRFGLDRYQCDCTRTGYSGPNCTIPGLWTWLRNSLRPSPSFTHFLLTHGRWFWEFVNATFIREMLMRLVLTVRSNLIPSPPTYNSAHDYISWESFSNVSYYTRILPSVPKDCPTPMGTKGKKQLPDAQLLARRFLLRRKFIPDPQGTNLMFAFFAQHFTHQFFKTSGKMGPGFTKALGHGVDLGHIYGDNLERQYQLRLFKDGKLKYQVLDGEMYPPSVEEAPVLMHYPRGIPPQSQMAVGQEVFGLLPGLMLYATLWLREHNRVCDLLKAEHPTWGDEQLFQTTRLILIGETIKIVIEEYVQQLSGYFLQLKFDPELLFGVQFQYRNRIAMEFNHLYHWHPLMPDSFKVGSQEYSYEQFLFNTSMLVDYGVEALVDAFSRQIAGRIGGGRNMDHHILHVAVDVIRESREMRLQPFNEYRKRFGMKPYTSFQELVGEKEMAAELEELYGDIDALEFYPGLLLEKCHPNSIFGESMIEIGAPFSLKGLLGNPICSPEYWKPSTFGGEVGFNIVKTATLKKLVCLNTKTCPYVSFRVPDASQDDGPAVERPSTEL

From ChEMBL document CHEMBL3868617, “Synthesis, COX-1/2 inhibition activities and molecular docking study of isothiazolopyridine derivatives” (Bioorg Med Chem, 2017) come the findings set out here.

On to `CC(C(=O)O)c1ccc(-c2ccccc2)c(F)c1` (stereo not drawn) [FLURBIPROFEN], for which the IC50 in experiment [1] was 0.01 to 2 µM.

For the compound `CN1C(C(=O)Nc2ccccn2)=C(O)c2ccccc2S1(=O)=O` [PIROXICAM], the IC50 in experiment [2] (read-out: IC50) was 255 µM; in experiment [2] (read-out: pIC50 (converted)) it was 85.1 µM.
